The values that follow are results of earlier work, collected in article PMC8713164, “Development of a 1,2,4-Triazole-Based Lead Tankyrase Inhibitor: Part II” (Journal of Medicinal Chemistry, 2021).

Where only a bound is given, the exact number is not on record here.

This data set has as its system RKO cells. The note with it: cited from earlier work.

As for `CCOc1ccc(-c2nnc([C@H]3C[C@H](NC(=O)c4ccccn4)C3)n2-c2ccccc2F)nc1` [Compound 1], the GI50 is greater than 10 µM.
